# Molecular target: T1, full-length B-Catenin (Uniprot ID P35222) (Homo sapiens, UniProt P35222)
# Chains of the proteins cited; added tags and fusions are not shown.
# UniProt P35222, whole entry: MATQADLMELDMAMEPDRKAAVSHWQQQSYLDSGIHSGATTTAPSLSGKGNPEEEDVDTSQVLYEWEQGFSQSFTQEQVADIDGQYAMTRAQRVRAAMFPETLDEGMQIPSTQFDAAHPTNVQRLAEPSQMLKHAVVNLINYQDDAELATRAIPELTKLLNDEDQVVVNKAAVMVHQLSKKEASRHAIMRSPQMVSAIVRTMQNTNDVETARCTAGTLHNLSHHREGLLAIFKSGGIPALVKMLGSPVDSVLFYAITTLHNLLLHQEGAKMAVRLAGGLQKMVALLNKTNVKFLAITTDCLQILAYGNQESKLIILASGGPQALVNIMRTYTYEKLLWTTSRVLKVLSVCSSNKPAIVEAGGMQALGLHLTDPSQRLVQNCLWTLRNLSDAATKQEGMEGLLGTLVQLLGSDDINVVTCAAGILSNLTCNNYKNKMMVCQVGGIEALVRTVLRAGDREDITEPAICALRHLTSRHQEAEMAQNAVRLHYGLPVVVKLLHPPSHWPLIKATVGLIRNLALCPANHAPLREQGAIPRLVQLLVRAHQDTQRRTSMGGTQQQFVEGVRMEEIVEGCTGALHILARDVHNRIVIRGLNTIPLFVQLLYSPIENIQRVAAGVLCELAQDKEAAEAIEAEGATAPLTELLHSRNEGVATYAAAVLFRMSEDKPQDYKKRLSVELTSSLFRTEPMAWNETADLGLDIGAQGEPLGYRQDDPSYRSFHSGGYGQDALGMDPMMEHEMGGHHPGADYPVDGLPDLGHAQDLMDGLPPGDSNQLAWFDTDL
# T1 construct: 10 nM full-length B-Catenin (Uniprot ID P35222)
# Assay: biochemical
# Format: binding
# Details: beta-Catenin FP IC50 (nM), competition fluorescence polarization
row,IC50 [nM],SMILES
1,> 1000,"CC(=O)N1CCC[C@]12CC=CCCCC1(CCCC=CCCCOC(=O)N3CC[C@@]4(C3)NC(=O)[C@H](CCCCNC(=O)CC[C@@H](C(=O)N[C@@H](C)C(N)=O)NC(=O)[C@H](Cc3csc5ccccc35)NC(=O)[C@H](Cc3ccsc3)NC4=O)NC(=O)[C@H](Cc3ccccc3)NC(=O)[C@H](C)NC(=O)C(C)(C)NC(=O)[C@H](Cc3cccc(C(=O)O)c3)NC(=O)[C@H]([C@@H](C)O)NC1=O)NC(=O)[C@H](CC(C)(C)C)NC(=O)[C@H](CC(=O)O)NC2=O (relative stereo) [I-167, Ac-PL3-Asp-Npg-B5-Thr-3COOHF-Aib-Ala-Phe-Lys*3-PyrS2-3Thi-BztA-GlnR*3-Ala-NH2]"
2,750 to 1000,"CC(=O)N1CCC[C@]12CC=CCCCC1(CCCC=CCCCOC(=O)N3CC[C@@](C(=O)N[C@@H](Cc4ccccc4C(F)(F)F)C(=O)N[C@@H](Cc4csc5ccccc45)C(=O)N[C@@H](CCC(N)=O)C(N)=O)(C3)NC(=O)[C@@H]3CCCCn4cc(nn4)C[C@H](NC(=O)[C@H](Cc4cccc(C(=O)O)c4)NC(=O)[C@H](CC(=O)O)NC1=O)C(=O)N[C@@H](C)C(=O)N[C@@H](Cc1ccccc1)C(=O)N3)NC(=O)[C@H](CC(C)(C)C)NC(=O)[C@H](CC(=O)O)NC2=O (stereo partly drawn) [I-28, Ac-PL3-Asp-Npg-B5-Asp-3COOHF-sAla*3-Ala-Phe-TriAzLys*3-PyrS2-2F3MeF-BztA-Gln-NH2]"
3,< 50,"CC(=O)N1CCC[C@]12CC=CCCCC1(CCCC=CCCCOC(=O)N3CC[C@@]4(C3)NC(=O)[C@H](CCC(=O)N(C(C)C)CCCC[C@@H](C(=O)N[C@@H](C)C(N)=O)NC(=O)[C@H](Cc3csc5ccccc35)NC(=O)[C@H](Cc3ccccc3C(F)(F)F)NC4=O)NC(=O)[C@H](Cc3ccccc3)NC(=O)[C@H](C)NC(=O)[C@H](C)NC(=O)[C@H](Cc3cccc(C(=O)O)c3)NC(=O)[C@H](CC(=O)O)NC1=O)NC(=O)[C@H](CC(C)(C)C)NC(=O)[C@H](CC(=O)O)NC2=O (relative stereo) [I-192, Ac-PL3-Asp-Npg-B5-Asp-3COOHF-Ala-Ala-Phe-GlnR*3-PyrS2-2F3MeF-BztA-iPrLys*3-Ala-NH2]"
4,50 to 200,"CC(=O)N1CCC[C@]12CC=CCCCC1(CCCC=CCCCOC(=O)N3CC[C@@]4(C3)NC(=O)[C@H](CCCCNC(=O)CC[C@@H](C(=O)N[C@@H](C)C(N)=O)NC(=O)[C@H](Cc3csc5ccccc35)NC(=O)[C@H](Cc3ccccc3C(F)(F)F)NC4=O)NC(=O)[C@H](Cc3ccccc3)NC(=O)[C@H](C)NC(=O)[C@H](C)NC(=O)[C@H](CN(CC(=O)O)CC(F)(F)F)NC(=O)[C@H](CC(=O)O)NC1=O)NC(=O)[C@H](CC(C)(C)C)NC(=O)[C@H](CC(N)=O)NC2=O (single isomer, unassigned) [I-114, Ac-PL3-Asn-Npg-B5-Asp-TfeGA-Ala-Ala-Phe-Lys*3-PyrS2-2F3MeF-BztA-GlnR*3-Ala-NH2]"
5,> 1000,"CC(=O)N1CCC[C@]12CCCCCCC1(CCCCCCCCOC(=O)N3CC[C@@]4(C3)NC(=O)[C@H](CCCCNC(=O)CC[C@@H](C(=O)N[C@@H](C)C(N)=O)NC(=O)[C@H](Cc3csc5ccccc35)NC(=O)[C@H](Cc3ccsc3)NC4=O)NC(=O)[C@H](Cc3ccccc3)NC(=O)[C@H](C)NC(=O)C(C)(C)NC(=O)[C@H](Cc3cccc(C(=O)O)c3)NC(=O)[C@H](CO)NC1=O)NC(=O)[C@H](CC(C)(C)C)NC(=O)[C@H](CC(=O)O)NC2=O (relative stereo) [I-178, Ac-PL3-Asp-Npg-B5-Ser-3COOHF-Aib-Ala-Phe-Lys*3-PyrS2-3Thi-BztA-GlnR*3-Ala-NH2]"
6,> 1000,"CC(=O)N1CCC[C@]12CC=CCCCC1(CCCC=CCCCOC(=O)N3CC[C@@]4(C3)NC(=O)[C@H](CCCCNC(=O)CC[C@@H](C(=O)N[C@@H](C)C(N)=O)NC(=O)[C@H](Cc3csc5ccccc35)NC(=O)[C@H](Cc3ccsc3)NC4=O)NC(=O)[C@H]([C@H](C)c3c(C)cccc3C)NC(=O)[C@H](C)NC(=O)C(C)(C)NC(=O)[C@H](Cc3cccc(C(=O)O)c3)NC(=O)[C@H](CC(=O)O)NC1=O)NC(=O)[C@H](CC(C)(C)C)NC(=O)[C@H](CC(=O)O)NC2=O (single isomer, unassigned) [I-600, Ac-PL3-Asp-Npg-B5-Asp-3COOHF-Aib-Ala-RbMeXylA-Lys*3-PyrS2-3Thi-BztA-GlnR*3-Ala-NH2]"
7,< 50,"CCCC[C@@H]1NC(=O)C(C)(C)NC(=O)[C@H](Cc2cccc(C(=O)O)c2)NC(=O)[C@H](CC(=O)O)NC(=O)C2(CCCC=CCCCOC(=O)N3CC[C@@]4(C3)NC(=O)[C@H](CCCCNC(=O)CC[C@@H](C(=O)N[C@@H](C)C(N)=O)NC(=O)[C@H](Cc3csc5ccccc35)NC(=O)[C@H](Cc3ccsc3)NC4=O)NC(=O)[C@H](Cc3ccccc3)NC1=O)CCCC=CC[C@]1(CCCN1C(C)=O)C(=O)N[C@@H](CC(=O)O)C(=O)N[C@@H](CC(C)(C)C)C(=O)N2 (single isomer, unassigned) [I-527, Ac-PL3-Asp-Npg-B5-Asp-3COOHF-Aib-nLeu-Phe-Lys*3-PyrS2-3Thi-BztA-GlnR*3-Ala-NH2]"
8,< 50,"CC(=O)N1CCC[C@]12CC=CCCCC1(CCCC=CCCCOC(=O)N3CC[C@@]4(C3)NC(=O)[C@H](CCCC(=O)NCCCC[C@@H](C(=O)N[C@@H](C)C(N)=O)NC(=O)[C@H](Cc3csc5ccccc35)NC(=O)[C@H](Cc3ccsc3)NC4=O)NC(=O)[C@H](Cc3ccccc3)NC(=O)[C@H](C)NC(=O)[C@H](C)NC(=O)[C@H](Cc3cccc(C(=O)O)c3)NC(=O)[C@H](CC(=O)O)NC1=O)NC(=O)[C@H](CC(C)(C)C)NC(=O)[C@H](CC(=O)O)NC2=O (relative stereo) [I-185, Ac-PL3-Asp-Npg-B5-Asp-3COOHF-Ala-Ala-Phe-hGlnR*3-PyrS2-3Thi-BztA-Lys*3-Ala-NH2]"
9,< 50,"CC(=O)N1CCC[C@]12CC=CCCCC1(CCCC=CCCCOC(=O)N3CC[C@@]4(C3)NC(=O)[C@H](CCCCNC(=O)CC[C@@H](C(=O)N[C@@H](C)C(N)=O)NC(=O)[C@H](Cc3csc5ccccc35)NC(=O)[C@H](Cc3ccsc3)NC4=O)NC(=O)[C@H](Cc3ccccc3F)NC(=O)[C@H](C)NC(=O)C(C)(C)NC(=O)[C@H](Cc3cccc(C(=O)O)c3)NC(=O)[C@H](CC(=O)O)NC1=O)NC(=O)[C@H](CC(C)(C)C)NC(=O)[C@H](CC(=O)O)NC2=O (single isomer, unassigned) [I-580, Ac-PL3-Asp-Npg-B5-Asp-3COOHF-Aib-Ala-2FF-Lys*3-PyrS2-3Thi-BztA-GlnR*3-Ala-NH2]"
10,> 1000,"CC(=O)N1CCC[C@]12CCCCCCC1(CCCCCCCCOC(=O)N3CC[C@@]4(C3)NC(=O)[C@H](CCCCNC(=O)CC[C@@H](C(=O)N[C@@H](C)C(N)=O)NC(=O)[C@H](Cc3csc5ccccc35)NC(=O)[C@H](Cc3ccsc3)NC4=O)NC(=O)[C@H](Cc3ccccc3)NC(=O)[C@H](C)NC(=O)C(C)(C)NC(=O)[C@H](Cc3cccc(C(=O)O)c3)NC(=O)[C@H](CC(=O)O)NC1=O)NC(=O)[C@H](CC(C)(C)C)NC(=O)[C@H](CCO)NC2=O (relative stereo) [I-174, Ac-PL3-Hse-Npg-B5-Asp-3COOHF-Aib-Ala-Phe-Lys*3-PyrS2-3Thi-BztA-GlnR*3-Ala-NH2]"
11,< 50,"CC(=O)N1CCC[C@]12CC=CCCCC1(CCCC=CCCCOC(=O)N3CC[C@@]4(C3)NC(=O)[C@H](CCCCNC(=O)CCC[C@@H](C(=O)N[C@@H](C)C(N)=O)NC(=O)[C@H](Cc3csc5ccccc35)NC(=O)[C@H](Cc3ccccc3C(F)(F)F)NC4=O)NC(=O)[C@H](Cc3ccccc3)NC(=O)[C@H](C)NC(=O)[C@H](C)NC(=O)[C@H](Cc3cccc(C(=O)O)c3)NC(=O)[C@H](CC(=O)O)NC1=O)NC(=O)[C@H](CC(C)(C)C)NC(=O)[C@H](CC(=O)O)NC2=O (relative stereo) [I-184, Ac-PL3-Asp-Npg-B5-Asp-3COOHF-Ala-Ala-Phe-Lys*3-PyrS2-2F3MeF-BztA-hGlnR*3-Ala-NH2]"
12,50 to 200,"CC(=O)N1CCC[C@]12CC=CCCCC1(CCCC=CCCCOC(=O)N3CC[C@@]4(C3)NC(=O)[C@H](CCCCNC(=O)CC[C@@H](C(=O)N[C@@H](C)C(N)=O)NC(=O)[C@H](Cc3csc5ccccc35)NC(=O)[C@H](Cc3ccccc3C(=O)O)NC4=O)NC(=O)[C@H](Cc3cccc(C(=O)O)c3)NC(=O)[C@H](C)NC(=O)C(C)(C)NC(=O)[C@H](Cc3cccc(C(=O)O)c3)NC(=O)[C@H](CC(=O)O)NC1=O)NC(=O)[C@H](CC(C)(C)C)NC(=O)[C@H](CC(=O)O)NC2=O (relative stereo) [I-346, Ac-PL3-Asp-Npg-B5-Asp-3COOHF-Aib-Ala-3COOHF-Lys*3-PyrS2-2COOHF-BztA-GlnR*3-Ala-NH2]"
13,750 to 1000,"CC(=O)N1CCC[C@]12CC=CCCCC1(CCCC=CCCCOC(=O)N3CC[C@@]4(C3)NC(=O)[C@H](CCC(=O)NCCCC[C@@H](C(N)=O)NC(=O)[C@H](Cc3csc5ccccc35)NC(=O)[C@H](Cc3ccsc3)NC4=O)NC(=O)[C@H](Cc3ccccc3)NC(=O)[C@H](C)NC(=O)[C@H](CCCCNC(C)C)NC(=O)[C@H](CCC(N)=O)NC(=O)[C@H](CC(=O)O)NC1=O)NC(=O)[C@H](CC1CCCCC1)NC(=O)[C@H](CC(N)=O)NC2=O (relative stereo) [I-152, Ac-PL3-Asn-Cha-B5-Asp-Gln-iPrLys-Ala-Phe-GlnR*3-PyrS2-3Thi-BztA-Lys*3-NH2]"
14,750 to 1000,"CC(=O)N1CCC[C@]12CC=CCCCC1(CCCC=CCCCOC(=O)N3CC[C@@]4(C3)NC(=O)[C@H](CCCCNC(=O)CC[C@@H](C(=O)N[C@@H](C)C(N)=O)NC(=O)[C@H](Cc3csc5ccccc35)NC(=O)[C@H](Cc3ccsc3)NC4=O)NC(=O)[C@H](CC(C)C)NC(=O)[C@H](C)NC(=O)C(C)(C)NC(=O)[C@H](Cc3cccc(C(=O)O)c3)NC(=O)[C@H](CC(=O)O)NC1=O)NC(=O)[C@H](CC(C)(C)C)NC(=O)[C@H](CC(=O)O)NC2=O (relative stereo) [I-360, Ac-PL3-Asp-Npg-B5-Asp-3COOHF-Aib-Ala-Leu-Lys*3-PyrS2-3Thi-BztA-GlnR*3-Ala-NH2]"
15,< 50,"CC(=O)N1CCC[C@]12CC=CCCCC1(CCCC=CCCCOC(=O)N3CC[C@@]4(C3)NC(=O)[C@H](CCCC(=O)NCCCC[C@@H](C(=O)N[C@@H](C)C(N)=O)NC(=O)[C@H](Cc3csc5ccccc35)NC(=O)[C@H](Cc3ccccc3C(F)(F)F)NC4=O)NC(=O)[C@H](Cc3ccccc3)NC(=O)[C@H](C)NC(=O)[C@H](C)NC(=O)[C@H](Cc3cccc(C(=O)O)c3)NC(=O)[C@H](CC(=O)O)NC1=O)NC(=O)[C@H](CC(C)(C)C)NC(=O)[C@H](CC(=O)O)NC2=O (relative stereo) [I-186, Ac-PL3-Asp-Npg-B5-Asp-3COOHF-Ala-Ala-Phe-hGlnR*3-PyrS2-2F3MeF-BztA-Lys*3-Ala-NH2]"

# Reference: patent publication US20240360179A1, “STAPLED PEPTIDES AND METHODS THEREOF” (FOG PHARMACEUTICALS, INC., priority 2021, published 2024)
